Assay results as given in patent publication US20050208394A1, “Dye-containing curable composition, color filter and method of producing the color filter” (FUJI PHOTO FILM CO., LTD., priority 2004, published 2005).

What was measured:
[1] = Light fastness: change in chromaticity ΔEab* of the coated glass substrate after xenon lamp irradiation; format: physicochemical; details: xenon lamp 50,000 Lux for 10 hours
Protocol: The glass substrate coated with the dye resist solution was irradiated with 50,000 Lux light from a xenon lamp for 10 hours (corresponding to 500,000 Lux·h) and then, a change in chromaticity, namely ΔEab* value, before and after the irradiation was measured. The obtained ΔEab* value was adopted as an index showing the degree of […] and evaluated based on the following criteria. The smaller the ΔEab* value is, the higher the […] is.
• A: ΔEab* was 3 or less. • B: ΔEab* exceeded 3 and was less than 10. • C: ΔEab* was 10 or more. —Pattern Shape—
A cyan pattern image was obtained by carrying out coating, prebaking, irradiation, developing, rinsing and drying in the same manner as in Example 1 and then heated at 180° C. for 5 minutes. Also, the heat resistance, light fastness and pattern shape were evaluated in the same manner as in Example 1 and also the solubility of the dye (exemplified compound (3)) was evaluated visually according to the same criteria as in Example 1 from the degree of solubility when the dye was dissolved in the above “1) Preparation of a dye resist solution (positive type dye-containing curable composition)”.

[2] = Heat resistance: change in chromaticity ΔEab* of the coated glass substrate after hot plate heating; format: physicochemical; details: 200° C. for one hour
[3] = negative type dye resist film on glass
[4] = positive type dye resist film on glass

Substance | Light fastness [1, 3] | Light fastness [1, 4] | Heat resistance [2, 3] | Heat resistance [2, 4]
Tetra-β-(1-benzimidazolyl)zinc phthalocyanine [Exemplified compound (2)] | B (ΔEab* exceeded 3 and was less than 10.) | A (ΔEab* was 3 or less.) | B (ΔEab* exceeded 5 and was less than 10.) | A (ΔEab* was 5 or less.)
tetra-α-(1-benzimidazolyl)zinc phthalocyanine [Exemplified compound (1)] | – | A (ΔEab* was 3 or less.) | – | –
